The values that follow come from patent US20240052300A1, “DIFFUSION GRADIENT ASSAY FOR ANTI-CD3-CONTAINING MOLECULES” (priority 2020, published 2024).

This data set has as its system CHO cells expressing a BiTE®-Fc fusion molecule. Conditions: 0 ug/mL to 1 μg/mL, 24 hours incubation; FIG. 1D.

Take “Pyroglutamate-DGNEEMGGC-AF594 [CD3-AF594 conjugate]”: the cell viability result is recorded as “no observed cell viability defects”.
